Target: T1, BtBamA (Bt3725) with an N-terminal His7 tag (Bacteroides thetaiotaomicron, UniProt Q8A1E1 20-885)
T1 construct: also called BtBamAhis; BamAhis
T1 sequence (looked up): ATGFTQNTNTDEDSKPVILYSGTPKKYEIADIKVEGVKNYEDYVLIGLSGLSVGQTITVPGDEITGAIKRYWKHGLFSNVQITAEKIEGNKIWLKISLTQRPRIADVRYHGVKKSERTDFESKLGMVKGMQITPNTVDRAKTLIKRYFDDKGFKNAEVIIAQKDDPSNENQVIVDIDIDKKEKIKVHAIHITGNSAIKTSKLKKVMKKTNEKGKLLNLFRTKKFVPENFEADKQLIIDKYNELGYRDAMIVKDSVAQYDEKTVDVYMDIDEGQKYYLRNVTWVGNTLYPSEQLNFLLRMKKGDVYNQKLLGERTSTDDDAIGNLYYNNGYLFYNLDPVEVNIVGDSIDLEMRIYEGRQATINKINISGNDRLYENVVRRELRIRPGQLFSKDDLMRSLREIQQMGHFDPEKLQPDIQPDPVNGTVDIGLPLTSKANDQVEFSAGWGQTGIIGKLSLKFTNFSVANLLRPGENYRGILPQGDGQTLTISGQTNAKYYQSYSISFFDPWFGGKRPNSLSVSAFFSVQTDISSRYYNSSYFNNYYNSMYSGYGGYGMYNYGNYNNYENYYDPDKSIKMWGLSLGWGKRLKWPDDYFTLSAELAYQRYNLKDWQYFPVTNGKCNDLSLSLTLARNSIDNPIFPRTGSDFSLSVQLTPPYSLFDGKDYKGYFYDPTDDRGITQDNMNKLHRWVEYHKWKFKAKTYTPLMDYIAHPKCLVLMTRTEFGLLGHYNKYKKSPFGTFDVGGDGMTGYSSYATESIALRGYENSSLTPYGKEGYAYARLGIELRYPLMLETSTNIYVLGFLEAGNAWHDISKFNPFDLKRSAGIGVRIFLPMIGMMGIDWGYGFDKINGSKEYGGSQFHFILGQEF
Test: affinity purification with mass spectrometry
Details: partners not purified

binding result: binds
B1: BtBamF (Bt4367) (natural protein, UniProt Q89ZL0 23-431, looked up)
chain: QNNTNSPYTRYGYGDLSDQSFGNSKAMGGIAFGLRDGAQINPTNPASYTAIDSLTFLFEGGVSLQNMNISGGGLKLNAKNASFDYLAMQFRLAPWMAMSVGLLPYSNVGYTVSDSQTTDNGLAYSRSFTGDGGLHQMYVGAGVKVLKNLSVGVNASYFWGDITRTRGMFYPGTSSYDSYQRKMVTSISDYKLDFGAQYTQALNKKSSLTIGAVYSPKHKLNNDYTSIVIMGASSSSYGTEYKDVLDATFELPNTFGVGFTYNYDKRLTVGADYSLQQWSKTNFGVVTSDENVRQDFNETFTYCDRTKISVGAEYIPNLIGRSYFAHIKYRLGAYYTTPYYKIDGKKASREYGVTAGFGLPVPRSRSILSISGQFVRVKGLETNMVNENIFRVSIGLTFNERWFFKRRVE
modifications: O-glycosylation (glycan on Ser75)

— paper doi:10.1101/2025.01.31.636011, “Discovery of a distinct BAM complex in the Bacteroidetes” (bioRxiv, 2025)
